Source: ChEMBL document CHEMBL1138586 (Bioorg Med Chem Lett, 2009)

Sequences of proteins named here, by UniProt entry; tags and fusion partners are left off. Residues count along the entry.
UniProt P00747, 97-580 limits assumed: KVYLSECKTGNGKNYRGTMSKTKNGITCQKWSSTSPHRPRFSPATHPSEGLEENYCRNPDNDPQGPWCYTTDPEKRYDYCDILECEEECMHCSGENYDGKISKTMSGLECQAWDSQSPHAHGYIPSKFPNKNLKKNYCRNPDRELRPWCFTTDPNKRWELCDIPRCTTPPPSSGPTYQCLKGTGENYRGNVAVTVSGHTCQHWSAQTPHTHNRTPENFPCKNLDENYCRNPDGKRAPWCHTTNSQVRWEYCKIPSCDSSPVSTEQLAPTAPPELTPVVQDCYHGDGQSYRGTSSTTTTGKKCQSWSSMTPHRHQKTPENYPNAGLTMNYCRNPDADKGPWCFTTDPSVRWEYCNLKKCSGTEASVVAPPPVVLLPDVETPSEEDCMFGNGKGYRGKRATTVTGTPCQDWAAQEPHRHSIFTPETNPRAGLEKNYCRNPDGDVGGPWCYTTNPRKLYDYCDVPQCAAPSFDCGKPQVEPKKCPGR
UniProt P00747, 581-810 limits assumed: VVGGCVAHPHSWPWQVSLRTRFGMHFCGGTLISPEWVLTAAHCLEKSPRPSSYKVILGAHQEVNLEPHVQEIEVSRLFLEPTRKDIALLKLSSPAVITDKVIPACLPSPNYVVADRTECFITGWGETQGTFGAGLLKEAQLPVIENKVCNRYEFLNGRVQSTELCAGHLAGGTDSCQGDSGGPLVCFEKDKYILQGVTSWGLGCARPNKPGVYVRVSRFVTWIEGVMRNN

Molecular target: Plasminogen (Homo sapiens, UniProt P00747)
Assay: Inhibition of plasmin

For COc1ccc(NC(=O)c2ccc(C(=N)N(C)C)cc2F)c(C(=O)Nc2ccc(Cl)cn2)c1, which IC50 is on record?
The IC50 was over 10 µM.
